Measured values reported in PMC6804253, “Predicting and Experimentally Validating Hot-Spot Residues at Protein–Protein Interfaces” (ACS Chemical Biology, 2019).

Amino acid sequences for entries named in this document (tags omitted). Residues count along the entry.
UniProt P63165, 18-97, species assumed: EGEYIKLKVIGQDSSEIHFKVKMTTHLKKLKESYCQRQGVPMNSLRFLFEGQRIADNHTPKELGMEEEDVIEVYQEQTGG

How the values were obtained:
Shank1 PDZ [1] = molecular target: T1, Shank1 PDZ (Homo sapiens, UniProt Q9Y566); conditions: pH 7.45
Shank1 PDZ [2] = molecular target: T1, Shank1 PDZ; assay: biochemical
SHANK-PDZ = molecular target: T2, SHANK-PDZ (Homo sapiens, UniProt Q9Y566); assay: biochemical
T2 sequence (Q9Y566 656-762): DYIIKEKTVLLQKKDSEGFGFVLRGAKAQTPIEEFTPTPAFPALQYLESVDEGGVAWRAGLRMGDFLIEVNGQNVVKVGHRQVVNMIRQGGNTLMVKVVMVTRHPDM

SUMO-1 = molecular target: T3, SUMO-1 (Homo sapiens, UniProt P63165); assay: biochemical; format: binding
T3 construct: The pet19b His-TEV-SUMO-1 (18-97) construct was over-expressed; His-TEV (N, cleaved yes); made in house; host or cells: E. coli Rosetta 2

| Compound | IC50 (Shank1 PDZ [1]) | IC50 (Shank1 PDZ [2]) [µM] | Kd (SHANK-PDZ) [µM] | IC50 (SUMO-1) [µM] |
| --- | --- | --- | --- | --- |
| CC(=O)N[C@@H](CCC(=O)O)C(=O)N[C@@H](C)C(=O)N[C@@H](CCC(N)=O)C(=O)N[C@H](C(=O)N[C@@H](CCCNC(=N)N)C(=O)N[C@@H](CC(C)C)C(N)=O)[C@@H](C)O [CO2H-CONH2 GKAP] | did not inhibit | > 1500 | 256 ± 64.3 | – |
| CC(=O)N[C@@H](CCC(=O)O)C(=O)N[C@@H](C)C(=O)N[C@@H](CCC(N)=O)C(=O)N[C@H](C(=O)N[C@@H](CCCNC(=N)N)C(=O)N[C@@H](CC(C)C)C(=O)O)[C@@H](C)O [GKAP] | – | 11 ± 1 | 2.77 ± 0.15 | – |
| CC[C@H](C)[C@H](NC(=O)[C@H](CCC(=O)O)NC(=O)[C@H](CC(N)=O)NC(=O)[C@H](CC(=O)O)NC(C)=O)C(=O)N[C@@H](CCC(=O)O)C(=O)N[C@H](C(=O)N[C@H](C(=O)N[C@H](C(=O)N[C@H](C(=O)N[C@@H](Cc1c[nH]c2ccccc12)C(=O)N[C@@H](CCC(=O)O)C(=O)N[C@@H](CCCCN)C(=O)N[C@@H](CCCCN)C(N)=O)C(C)C)[C@@H](C)CC)[C@@H](C)CC)C(C)C [SIM] | – | – | – | 30 ± 1 |

Like-named read-outs stand apart in the source and are kept apart here.
